Like-named read-outs stand apart in the source and are kept apart here. Only a part of the results on these compounds is given; other tests are left out.
How the values were obtained:
[1] = target: T1, μ-opioid receptor (Homo sapiens (Human), UniProt P35372); test: μ-opioid receptor radioligand dose-displacement binding assay ([3H]-diprenorphine); conditions: read-out: Ki μ opioid receptor; binding affinity
[2] = target: T2, κ opioid receptor (Homo sapiens (Human), UniProt P41145); test: κ-opioid receptor radioligand dose displacement assay ([3H]-U69,593); conditions: read-out: Ki κ opioid receptor; binding affinity
[3] = target: human opioid receptor-like receptor (ORL-1) (Homo sapiens (Human), UniProt P41146); test: ORL-1 receptor radioligand binding assay ([3H]-nociceptin); conditions: read-out: Ki ORL-1, binding affinity
[4] = target: T3, δ opioid receptor (Homo sapiens (Human), UniProt P41143); test: δ-opioid receptor radioligand dose-displacement assay ([3H]-Naltrindole); conditions: read-out: Ki δ opioid receptor, binding affinity
[5] = target: T3, δ opioid receptor; test: δ-opioid receptor functional [35S]GTPγS binding assay; conditions: read-out: GTPγS δ EC50; bound given in μM
[6] = target: T1, μ-opioid receptor; test: μ-opioid receptor [35S]GTPγS functional assay; conditions: read-out: GTPγS μ EC50; bound given in μM
[7] = target: T2, κ opioid receptor; test: κ-opioid receptor functional [35S]GTPγS binding assay; conditions: read-out: GTPγS κ EC50; bound given in μM

Protein sequences, listed by entry. Tags and fused reporters are not part of them.
UniProt P35372, whole entry, looked up: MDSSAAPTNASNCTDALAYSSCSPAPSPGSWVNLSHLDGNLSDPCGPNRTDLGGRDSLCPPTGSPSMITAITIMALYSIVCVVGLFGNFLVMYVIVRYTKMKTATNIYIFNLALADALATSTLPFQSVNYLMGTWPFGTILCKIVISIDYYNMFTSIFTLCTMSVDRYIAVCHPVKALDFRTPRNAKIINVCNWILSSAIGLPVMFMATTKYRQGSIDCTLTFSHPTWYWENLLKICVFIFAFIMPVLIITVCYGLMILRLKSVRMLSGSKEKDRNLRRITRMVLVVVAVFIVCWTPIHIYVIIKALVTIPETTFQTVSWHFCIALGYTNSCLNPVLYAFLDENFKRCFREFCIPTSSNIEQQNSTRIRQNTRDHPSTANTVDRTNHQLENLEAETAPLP
UniProt P41145, whole entry, looked up: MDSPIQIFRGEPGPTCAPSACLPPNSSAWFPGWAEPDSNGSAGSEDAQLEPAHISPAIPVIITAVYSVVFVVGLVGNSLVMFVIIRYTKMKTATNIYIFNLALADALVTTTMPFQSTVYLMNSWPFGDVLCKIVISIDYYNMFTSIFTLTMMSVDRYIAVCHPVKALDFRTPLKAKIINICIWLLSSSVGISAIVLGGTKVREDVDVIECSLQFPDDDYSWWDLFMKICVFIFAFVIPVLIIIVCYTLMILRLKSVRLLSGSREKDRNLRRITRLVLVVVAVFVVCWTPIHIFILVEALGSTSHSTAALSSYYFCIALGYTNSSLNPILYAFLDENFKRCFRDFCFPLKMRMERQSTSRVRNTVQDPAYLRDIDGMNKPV
UniProt P41146, whole entry, looked up: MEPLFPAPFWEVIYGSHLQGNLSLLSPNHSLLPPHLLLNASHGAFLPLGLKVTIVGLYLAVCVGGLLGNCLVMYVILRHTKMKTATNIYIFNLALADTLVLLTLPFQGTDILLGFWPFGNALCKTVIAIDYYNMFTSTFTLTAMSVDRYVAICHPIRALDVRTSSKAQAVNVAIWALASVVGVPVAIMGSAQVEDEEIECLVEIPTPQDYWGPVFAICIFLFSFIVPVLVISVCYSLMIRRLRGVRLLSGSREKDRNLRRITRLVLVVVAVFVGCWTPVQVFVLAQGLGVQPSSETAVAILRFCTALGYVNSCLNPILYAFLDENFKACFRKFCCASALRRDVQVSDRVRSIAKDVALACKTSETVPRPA

Substance	Ki [1] [nM]	Ki [2] [nM]	Ki ([3]; bound given in μM) [µM]	Ki [4] [µM]	EC50 [5] [µM]	EC50 [6] [µM]	EC50 [7] [µM]	Ki ([4]; bound given in μM) [µM]	Ki ([3]; mean ± spread) [µM]
(3R,4R,4aS,6R,7R,7aR,12bS)-3-(cyclopropylmethyl)-6-(((2-fluorobenzyl)oxy)methyl)-9-hydroxy-7-methoxy-3-methyl-1,2,3,4,5,6,7,7a-octahydro-4a,7-ethano-4,12-methanobenzofuro[3,2-e]isoquinolin-3-ium	4.51	0.2							
(3R,4R,4aS,6R,7R,7aR,12bS)-3-(cyclopropylmethyl)-6-(((3,4-dichlorobenzyl)oxy)methyl)-7,9-dimethoxy-3-methyl-1,2,3,4,5,6,7,7a-octahydro-4a,7-ethano-4,12-methanobenzofuro[3,2-e]isoquinolin-3-ium	67.2	5.02	> 20	4.41					
(3R,4R,4aS,6R,7R,7aR,12bS)-3-(cyclopropylmethyl)-6-(((3-fluorobenzyl)oxy)methyl)-9-hydroxy-7-methoxy-3-methyl-1,2,3,4,5,6,7,7a-octahydro-4a,7-ethano-4,12-methanobenzofuro[3,2-e]isoquinolin-3-ium	5.35	0.25							
(3R,4R,4aS,6R,7R,7aR,12bS)-3-(cyclopropylmethyl)-6-(((4-fluorobenzyl)oxy)methyl)-9-hydroxy-7-methoxy-3-methyl-1,2,3,4,5,6,7,7a-octahydro-4a,7-ethano-4,12-methanobenzofuro[3,2-e]isoquinolin-3-ium	9.55	0.26	> 20	0.175	> 20	> 20			
(3R,4R,4aS,6R,7R,7aR,12bS)-3-(cyclopropylmethyl)-6-((furan-2-ylmethoxy)methyl)-7,9-dimethoxy-3-methyl-1,2,3,4,5,6,7,7a-octahydro-4a,7-ethano-4,12-methanobenzofuro[3,2-e]isoquinolin-3-ium	571	10.6		4.79		> 20			
(3R,4R,4aS,6R,7R,7aR,12bS)-3-(cyclopropylmethyl)-6-((furan-3-ylmethoxy)methyl)-7,9-dimethoxy-3-methyl-1,2,3,4,5,6,7,7a-octahydro-4a,7-ethano-4,12-methanobenzofuro[3,2-e]isoquinolin-3-ium	5810	35							
(3R,4R,4aS,6R,7R,7aR,12bS)-3-(cyclopropylmethyl)-6-((furan-3-ylmethoxy)methyl)-9-hydroxy-7-methoxy-3-methyl-1,2,3,4,5,6,7,7a-octahydro-4a,7-ethano-4,12-methanobenzofuro[3,2-e]isoquinolin-3-ium	47.1	0.29		0.193	> 20	> 20			
(3R,4R,4aS,6R,7R,7aR,12bS)-3-(cyclopropylmethyl)-7,9-dimethoxy-3-methyl-6-(((4-methylbenzyl)oxy)methyl)-1,2,3,4,5,6,7,7a-octahydro-4a,7-ethano-4,12-methanobenzofuro[3,2-e]isoquinolin-3-ium	242	117	> 20	10.1		> 20			
(3R,4R,4aS,6R,7R,7aR,12bS)-3-(cyclopropylmethyl)-7,9-dimethoxy-3-methyl-6-((naphthalen-2-ylmethoxy)methyl)-1,2,3,4,5,6,7,7a-octahydro-4a,7-ethano-4,12-methanobenzofuro[3,2-e]isoquinolin-3-ium	182	165				> 20			
(3R,4R,4aS,6R,7R,7aR,12bS)-3-(cyclopropylmethyl)-7,9-dimethoxy-3-methyl-6-(phenoxymethyl)-1,2,3,4,5,6,7,7a-octahydro-4a,7-ethano-4,12-methanobenzofuro[3,2-e]isoquinolin-3-ium	1490	348					> 20		
(3R,4R,4aS,6R,7R,7aR,12bS)-3-(cyclopropylmethyl)-7,9-dimethoxy-6-(((4-methoxybenzyl)oxy)methyl)-3-methyl-1,2,3,4,5,6,7,7a-octahydro-4a,7-ethano-4,12-methanobenzofuro[3,2-e]isoquinolin-3-ium	544	57	> 20			> 20		> 20	
(3R,4R,4aS,6R,7R,7aR,12bS)-3-(cyclopropylmethyl)-9-hydroxy-7-methoxy-3-methyl-6-(((2-methylbenzyl)oxy)methyl)-1,2,3,4,5,6,7,7a-octahydro-4a,7-ethano-4,12-methanobenzofuro[3,2-e]isoquinolin-3-ium		0.47							
(3R,4R,4aS,6R,7R,7aR,12bS)-3-(cyclopropylmethyl)-9-hydroxy-7-methoxy-3-methyl-6-(((3-methylbenzyl)oxy)methyl)-1,2,3,4,5,6,7,7a-octahydro-4a,7-ethano-4,12-methanobenzofuro[3,2-e]isoquinolin-3-ium	4.3	0.29							
(3R,4R,4aS,6R,7R,7aR,12bS)-3-(cyclopropylmethyl)-9-hydroxy-7-methoxy-3-methyl-6-(((4-methylbenzyl)oxy)methyl)-1,2,3,4,5,6,7,7a-octahydro-4a,7-ethano-4,12-methanobenzofuro[3,2-e]isoquinolin-3-ium	1.36	1.06	> 20	0.109	> 20	> 20			
(3R,4R,4aS,6R,7R,7aR,12bS)-3-(cyclopropylmethyl)-9-hydroxy-7-methoxy-3-methyl-6-((thiophen-3-ylmethoxy)methyl)-1,2,3,4,5,6,7,7a-octahydro-4a,7-ethano-4,12-methanobenzofuro[3,2-e]isoquinolin-3-ium	24.3	0.2		0.202	> 20	> 20			
(3R,4R,4aS,6R,7R,7aR,12bS)-6-(((2-chlorobenzyl)oxy)methyl)-3-(cyclopropylmethyl)-9-hydroxy-7-methoxy-3-methyl-1,2,3,4,5,6,7,7a-octahydro-4a,7-ethano-4,12-methanobenzofuro[3,2-e]isoquinolin-3-ium		0.19							
(3R,4R,4aS,6R,7R,7aR,12bS)-6-(((3-chlorobenzyl)oxy)methyl)-3-(cyclopropylmethyl)-9-hydroxy-7-methoxy-3-methyl-1,2,3,4,5,6,7,7a-octahydro-4a,7-ethano-4,12-methanobenzofuro[3,2-e]isoquinolin-3-ium	6.26	0.27							
(3R,4R,4aS,6R,7R,7aR,12bS)-6-(((4-carbamoylbenzyl)oxy)methyl)-3-(cyclopropylmethyl)-7,9-dimethoxy-3-methyl-1,2,3,4,5,6,7,7a-octahydro-4a,7-ethano-4,12-methanobenzofuro[3,2-e]isoquinolin-3-ium		1030							
(3R,4R,4aS,6R,7R,7aR,12bS)-6-(((4-chlorobenzyl)oxy)methyl)-3-(cyclopropylmethyl)-9-hydroxy-7-methoxy-3-methyl-1,2,3,4,5,6,7,7a-octahydro-4a,7-ethano-4,12-methanobenzofuro[3,2-e]isoquinolin-3-ium		0.59							
(3R,4R,4aS,6R,7R,7aR,12bS)-6-(((6-chlorobenzo[d][1,3]dioxol-5-yl)methoxy)methyl)-3-(cyclopropylmethyl)-7,9-dimethoxy-3-methyl-1,2,3,4,5,6,7,7a-octahydro-4a,7-ethano-4,12-methanobenzofuro[3,2-e]isoquinolin-3-ium	163	66.7	> 20	18.4					
(3R,4R,4aS,6R,7R,7aR,12bS)-6-((benzo[b]thiophen-2-ylmethoxy)methyl)-3-(cyclopropylmethyl)-9-hydroxy-7-methoxy-3-methyl-1,2,3,4,5,6,7,7a-octahydro-4a,7-ethano-4,12-methanobenzofuro[3,2-e]isoquinolin-3-ium	2.29	0.78		0.0453	> 20	> 20	> 20		18.2
(3R,4R,4aS,6R,7R,7aR,12bS)-6-((benzofuran-2-ylmethoxy)methyl)-3-(cyclopropylmethyl)-7,9-dimethoxy-3-methyl-1,2,3,4,5,6,7,7a-octahydro-4a,7-ethano-4,12-methanobenzofuro[3,2-e]isoquinolin-3-ium	275	17.3				> 20			
(3R,4R,4aS,6R,7R,7aR,12bS)-6-((benzyloxy)methyl)-3-(cyclopropylmethyl)-9-hydroxy-7-methoxy-3-methyl-1,2,3,4,5,6,7,7a-octahydro-4a,7-ethano-4,12-methanobenzofuro[3,2-e]isoquinolin-3-ium	2.11	0.55		0.0188					
(3S,4R,4aS,6R,7R,7aR,12bS)-3-(cyclopropylmethyl)-7,9-dimethoxy-3-methyl-6-(((4-(trifluoromethyl)benzyl)oxy)methyl)-1,2,3,4,5,6,7,7a-octahydro-4a,7-ethano-4,12-methanobenzofuro[3,2-e]isoquinolin-3-ium	262	112	> 20		> 20	> 20		> 20	
